Test [1] is described as follows: Selectivity ratio of Ki for human plasma BuChE assessed as second order carbamylation rate constant to Ki for equine serum BuChE assessed as second order carbamylation rate constant.
Test [2] is described as follows: Selectivity ratio of decarbamylation rate constant for human plasma BuChE to decarbamylation rate constant for equine serum BuChE.
The species entered for a further test is Homo sapiens. Briefly: Selectivity ratio of IC50 for human blood AChE to IC50 for human blood BuChE.

For `CN(C)C(=O)Oc1cc(OC(=O)N(C)C)cc(C(O)CNC(C)(C)C)c1` (stereo not drawn) [BAMBUTEROL], the Ratio Ki in test [1] stood at 50. Further, in test [2], the Selectivity ratio was 5. Besides, the Ratio IC50 in the test listed under Homo sapiens was found to be 10000.

Source of the values: ChEMBL document CHEMBL4007382, “Design, synthesis and biological evaluation of bambuterol analogues as novel inhibitors of butyrylcholinesterase” (Eur J Med Chem, 2017).
